# From ChEMBL document CHEMBL2029214, “Radiosynthesis and evaluation of an (18)F-labeled positron emission tomography (PET) radioligand for brain histamine subtype-3 receptors based on a nonimidazole 2-aminoethylbenzofuran chemotype” (J Med Chem, 2012)
# The chains behind the UniProt entries cited, without tags or fusion partners. Where a name states a change or a piece, a line headed by the entry shows the natural chain unless it says otherwise.
# UniProt Q9Y5N1: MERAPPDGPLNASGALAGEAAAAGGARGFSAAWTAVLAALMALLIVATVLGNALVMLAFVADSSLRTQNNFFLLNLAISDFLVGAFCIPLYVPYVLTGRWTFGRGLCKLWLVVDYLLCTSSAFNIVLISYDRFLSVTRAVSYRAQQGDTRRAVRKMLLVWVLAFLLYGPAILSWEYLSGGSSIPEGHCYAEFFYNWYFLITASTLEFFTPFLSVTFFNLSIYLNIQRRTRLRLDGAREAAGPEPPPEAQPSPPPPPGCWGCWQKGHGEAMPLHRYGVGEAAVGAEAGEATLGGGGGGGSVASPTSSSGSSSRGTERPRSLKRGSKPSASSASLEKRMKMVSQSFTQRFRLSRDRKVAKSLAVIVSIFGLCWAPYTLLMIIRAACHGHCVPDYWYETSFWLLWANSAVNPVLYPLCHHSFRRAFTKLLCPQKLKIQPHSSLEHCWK
# Target: Histamine H3 receptor (Homo sapiens, UniProt Q9Y5N1)
# Assay: Binding affinity to human recombinant H3 receptor expressed in HEK293T cells
# Format: cell-based, HEK-293T
structure (smiles),measurement,value
C[C@@H]1CCCN1CCc1cc2cc(C(=O)c3ccc(F)cc3)ccc2o1,Ki,1.9 nM
